Test results published in patent publication US10758531B2, “Regimens and compositions for treating HIV infections and AIDS” (ViiV Healthcare Company, priority 2016, dated 2020).

Test: Drug-drug interactions: effect on concentration on co-administration (Table 1)
[1] = concomitant Clarithromycin, Erythromycin, Telithromycin
[2] = concomitant H2-receptor antagonists: Famotidine, Cimetidine, Nizatidine, Ranitidine
[3] = concomitant antacids (aluminum, magnesium hydroxide, calcium carbonate), cation-containing antacids or laxatives, sucralfate, buffered medications
[4] = concomitant protease inhibitor Tipranavir/ritonavir
[5] = concomitant use of rifabutin and a composition of the invention

Row | SMILES | Effect on Concentration [1] | Effect on Concentration [2] | Effect on Concentration (concomitant NNRTIs: Delavirdine, Efavirenz, Etravirine, Nevirapine) | Effect on Concentration [3] | Effect on Concentration (concomitant oral calcium and iron supplements (non-antacid)) | Effect on Concentration [4] | Effect on Concentration [5]
1 | O=C(NCc1c(F)cc(F)cc1F)c1cn2c(c(O)c1=O)C(=O)N1[C@H]3CC[C@H](C3)O[C@@H]1C2 [Bictegravir, (2R,5S,13aR)-8-hidroxi-7,9-dioxo-N-[(2,4,6-trifluorofenil)metil]-2,3,4,5,7,9,13,13a-octahidro-2,5-metanopirido [1′,2′:4,5]pirazino[2,1-b][1,3]oxazepina-10-carboxamida] | ↔Bictegravir | ↔Bictegravir | ↓Bictegravir | ↓Bictegravir | ↓Bictegravir | ↓Bictegravir | ↔Bictegravir
2 | Cc1cc(/C=C/C#N)cc(C)c1Nc1ccnc(Nc2ccc(C#N)cc2)n1 [Rilpivirine, 4-[[4-[[4-[(E)-2-cyanoethenyl]-2,6-dimethylphenyl]amino]-2-pyrimidinyl]amino]benzonitrile] | ↑Rilpivirine | ↓Rilpivirine | – | ↓Rilpivirine | – | ↑Rilpivirine | ↓Rilpivirine
